In PubChem BioAssay AID686952 (The Scripps Research Institute Molecular Screening Center, 2013):
Only a part is listed here, and it is no random draw. Active and inactive are the calls of the source.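 The calls were made as follows: active = activation above the all-compound mean plus 3 SD, ignoring values outside control-based bounds (cut at about 4.8% in these data); inactive = the rest.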

Experiment: EDANS-DABCYL substrate optical interference, artefact control for kallikrein-7 zymogen activator project, biochemical, fluorescence intensity, high throughput (AID 686952);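 also: value is the 4 h activation minus the activation read at time zero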
Conditions: no enzyme, 4 h, at 7 µM, active compounds read high, solvent 0%, active enzyme control 100%

Row | Compound | activation
1 | Nc1cccc2ccc([As](=O)(O)O)cc12 | active: 23.4%
